System: B16F10 melanoma tumor
Test: In vivo anticancer efficacy, subcutaneous B16F10 melanoma tumor model
Design: species or system BALB/c nude mice
Description: Tumor-bearing mice were established by subcutaneously injecting a suspension of 5 × 10^5 B16F10 cells per mouse into the front flank of each nude mouse. When tumor volume reached 50−70 mm^3, the animals were randomly divided into five groups (n = 5). The mice were administered different compounds suspended in PBS via the tail vein every 3 days for a total of four times.
The mice underwent four treatment courses on day 0, day 3, day 6, and day 9. Tumor size and body weight were measured every day. Tumor volume was calculated via the following formula: V = 1/2 × (minor axis) × (major axis)[2].
After 12 days, the mice were sacrificed and dissected to obtain tumor tissues and main organs, including heart, liver, spleen, lung, and kidney. Subsequently, all tissues were fixed in a 4% paraformaldehyde solution, routinely paraffin-embedded and sectioned, and then stained with hematoxylin and eosin, as well as using TdT-mediated dUTP nick-end labeling (TUNEL) for subsequent pathological analysis. TUNEL-positive cells appeared fluorescent green, representing the apoptosis of tumor cells (nuclei were fluorescent blue, stained with DAPI).
13. In vivo anticancer efficacy […]
13.2 Calculation of the tumor growth inhibition values (TGI)
Tumor growth inhibition values (TGI) were calculated using the following formula: TGI (%) = (1 − RTVtreatment/
RTVcontrol)*100. RTV refers to relative tumor volume, representing the ratio of the volume at the end of treatment to the
volume at the beginning of treatment. […]

COc1cccc2c1C(=O)c1c(O)c3c(c(O)c1C2=O)C[C@@](O)(C(=O)CO)C[C@@H]3O[C@H]1C[C@H](N)[C@H](O)[C@H](C)O1 [Dox, doxorubicin]
tumor growth inhibition values (TGI %) (Data 1): 61.6%
tumor growth inhibition values (TGI %) (Data 2): 62.21%
tumor growth inhibition values (TGI %) (Data 4): 62.1%
